{"source": "patent EP0986401B1", "about": "“P-SELECTIN TRANSLOCATION TO VASCULAR EPITHELIAL LUMEN BY IONIZING RADIATION” (ARCH DEVELOPMENT CORPORATION, priority 1997, dated 1998)", "origin": "cited, not measured here", "target": "T1, E-selectin (Homo sapiens, UniProt P16581)", "T1 sequence (P16581 22-610)": "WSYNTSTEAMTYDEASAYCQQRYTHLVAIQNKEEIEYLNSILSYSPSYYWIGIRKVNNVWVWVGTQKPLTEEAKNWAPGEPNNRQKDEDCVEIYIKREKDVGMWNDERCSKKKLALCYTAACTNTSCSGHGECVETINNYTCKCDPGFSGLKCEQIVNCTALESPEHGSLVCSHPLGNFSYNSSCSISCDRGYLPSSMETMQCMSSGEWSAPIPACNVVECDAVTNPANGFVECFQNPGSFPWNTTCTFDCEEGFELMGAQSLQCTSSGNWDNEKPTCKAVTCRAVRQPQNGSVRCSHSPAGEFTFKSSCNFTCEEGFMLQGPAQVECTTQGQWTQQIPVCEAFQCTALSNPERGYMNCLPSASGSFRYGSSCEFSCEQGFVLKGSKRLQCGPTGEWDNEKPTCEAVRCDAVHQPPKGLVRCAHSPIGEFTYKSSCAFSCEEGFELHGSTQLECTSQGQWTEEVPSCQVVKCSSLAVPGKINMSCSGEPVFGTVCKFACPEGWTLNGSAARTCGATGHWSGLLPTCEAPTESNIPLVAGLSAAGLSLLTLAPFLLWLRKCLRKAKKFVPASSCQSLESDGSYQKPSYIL", "details": "solution-phase; Nelson et al. (1993); cited from earlier work", "data": [{"substance": "Neu5Acα2-3Galβ1-4 [Fucα1-3]GlcNAc [sialyl Lewis X]", "values": [{"measurement": "blocker of E-selectin", "value": "more potent blocker"}]}]}
